Literature values, collected in patent US20250312300A1, “BRIDGED BICYCLIC CARBOXYLIC ACIDS FOR TREATING OSTEOSARCOMA AND EWING SARCOMA” (UEA ENTERPRISES LIMITED, priority 2022, published 2025).

System: osteosarcoma
Conditions: HER2-positive vs HER2-negative groups, PMID: 22665540; cited from earlier work

In the case of trastuzumab, the “patient outcome / therapeutic benefit” value is given as “therapeutic benefit remains uncertain”.
